Results taken from patent US20220040324A1, “COMBINATION OF ANTIBODY-DRUG CONJUGATE AND KINASE INHIBITOR” (DAIICHI SANKYO COMPANY, LIMITED, priority 2018, published 2022).

What was measured:
[1] = tested on: KPL-4 cells; test: Antitumor test (4): nude mice with subcutaneously transplanted KPL-4 cells; type: in vivo, human; details: single administration; antibody-drug conjugate (1) 7.5 mg/kg iv on Day 0
Description: (§1) Mouse: 5 to 6-week-old BALB/c nude mice (Charles River Laboratories Japan, Inc.) were subjected to experiment.
(§2) Assay and calculation expression: In all of the studies, the major axis and minor axis of a tumor were measured twice a week by using an electronic digital caliper (CD15-CX, Mitutoyo Corp.), and the tumor volume (mm^3) was calculated. The calculation expression is as shown below.
(§3) Tumor volume (mm^3)=1/2×Major axis (mm)×[Minor axis (mm)]^2
(§4) Everolimus was suspended in 30% propylene glycol and 5% Tween 80, and orally administered at a liquid volume of 10 mL/kg. Taselisib was suspended in 0.5% methyl cellulose and 0.2% Tween 80, and orally administered at a liquid volume of 10 mL/kg. Abemaciclib was suspended in 1% hydroxyethyl cellulose and 0.1% antifoam/25 mM phosphate buffer, pH2, and orally administered at a liquid volume of 10 mL/kg.
KPL-4 cells, a human breast cancer cell line, obtained from Dr. Junichi Kurebayashi, Kawasaki Medical School (British Journal of Cancer. (1999)79 (5/6). 707-717) were suspended in physiological saline, and 1.5×10^7 cells were subcutaneously transplanted to the right flank of each female nude mouse, and the mice were randomly grouped 17 days after the transplantation (Day 0). […] Tucatinib was suspended in 0.5% methyl cellulose, and orally administered at a liquid volume of 10 mL/kg. […]

[2] = tested on: MDA-MB-453 cells; test: Antitumor test (1): nude mice with subcutaneously transplanted MDA-MB-453 cells; type: in vivo, human; details: single administration; antibody-drug conjugate (1) 0.5 mg/kg intravenously on Day 0; BALB/c nude mice
Description: as §1, §2, §3, §4
Everolimus was administered once a day, five times a week, at a dose of 5 mg/kg for 3 weeks. Taselisib was administered once a day, five times a week, at a dose of 5 mg/kg for 3 weeks. Abemaciclib was administered once a day, five times a week, at a dose of 30 mg/kg for 2 weeks.

[3] = tested on: NCI-N87 cell line; type: cell-based, human
Description: The human gastric cancer cell line NCI-N87 purchased from ATCC was used for evaluation. To a 1536-well cell culture plate, erlotinib (hydrochloride), poziotinib, mubritinib, brigatinib, or BIBF1120 prepared with dimethyl sulfoxide (DMSO) to concentrations of 2 mM, 400 μM, 80 μM, 16 μM, 3.2 μM, and 640 nM, or DMSO was added at 25 nL/well. […] Subsequently, NCI-N87 cells suspended with an RPMI1640 Medium containing 10% fetal bovine serum to a concentration of 4×10^4 cells/mL were seeded at 2.5 μL/well, and cultured at 37° C. under 5% CO2 for 6 days.
After culturing, a solution obtained by diluting CellTiter-Glo 2.0 Assay (Promega Corporation) with an equivalent amount of Glo Lysis buffer, 1×(Promega Corporation) was added at 2 μL/well, and incubation was performed at room temperature for 1 hour, and luminescence intensity was then measured for each well.
Cell growth inhibition rate (%) was calculated by using the following calculation expression.
T: Mean luminescence intensity of wells with specimen B: Mean luminescence intensity of wells with DMSO and medium C: Mean luminescence intensity of wells with DMSO and cells
Sigmoid fitting with Genedata Screener Analyzer Version 14 (Genedata AG, hereinafter referred to as Screener) was performed for concentration-dependent transition of cell growth inhibition rates under each of combined use conditions.

[4] = tested on: MDA-MB-453 cells; test: Antitumor test (5): nude mice with subcutaneously transplanted MDA-MB-453 cells; type: in vivo, human; details: single administration; antibody-drug conjugate (1) 0.5 mg/kg iv on Day 0
Description: as §1, §2, §3, §4
MDA-MB-453 cells, a human breast cancer cell line, purchased from ATCC (American Type Culture Collection) were suspended in Matrigel basement membrane matrix, and 1×10^7 cells were subcutaneously transplanted to the right flank of each female nude mouse, and the mice were randomly grouped 7 days after the transplantation (Day 0). […] Tucatinib was administered once a day, five times a week, at a dose of 100 mg/kg for three weeks.

[5] = tested on: JIMT-1 cells; test: Antitumor test (2): nude mice with subcutaneously transplanted JIMT-1 cells; type: in vivo, human; details: single administration; antibody-drug conjugate (1) 10 mg/kg iv on Day 0
Description: as §1, §2, §3, §4

Substance: antibody-drug conjugate (1): anti-HER2 antibody (SEQ ID NO: 1 residues 1-449, SEQ ID NO: 2 residues 1-214) conjugated to the drug-linker via thioether bond; DAR 7.7 or 7.8
- tumor growth inhibition (TGI) [1]: 78%
- tumor growth inhibition (TGI) [2]: 75%
- Synergy Score, combination with Mubritinib [3]: −0.06
- tumor growth inhibition (TGI) [4]: 52%
- tumor growth inhibition (TGI) [5]: 53%
